# Assay results as given in patent publication US9611277B2 (Janssen Pharmaceutica NV, priority 2013, dated 2017).
# Like-named read-outs stand apart in the source and are kept apart here.
# Key:
# human orexin 1 receptor = human orexin 1 receptor (Homo sapiens, UniProt O43613); assay: Human orexin 1 receptor radioligand binding; conditions: read-out: hOX1 Ki
# Procedure: (§1) Data are analyzed using pc-Sandy macro and graphed on Graphpad Prism 5. For analysis, each concentration point is averaged from triplicate values and the averaged values are plotted on Graphpad Prism. The IC50 was determined by applying the following equation (GraphPad Prism 5.0, SanDiego) for one site competition where X=log (concentration) and Y=specific binding. Top denotes the total [^3H]-(1-(5-(2-fluoro-phenyl)-2-methyl-thiazol-4-yl)-1-((S)-2-(5-phenyl-(1,3,4)oxadiazol-2-ylmethyl)-pyrrolidin-1-yl)-methanone) binding, bottom denotes the nonspecific [^3H]-(1-(5-(2-fluoro-phenyl)-2-methyl-thiazol-4-yl)-1-((S)-2-(5-phenyl-(1,3,4)oxadiazol-2-ylmethyl)-pyrrolidin-1-yl)-methanone) binding. Graphpad Prism calculates Ki value from IC50 and the pre-determined Kd values for [^3H]-(1-(5-(2-fluoro-phenyl)-2-methyl-thiazol-4-yl)-1-((S)-2-(5-phenyl-(1,3,4)oxadiazol-2-ylmethyl)-pyrrolidin-1-yl)-methanone) and [3H]-EMPA. The Ki for each compound is then uploaded into 3DX. Each run comprises individual compounds in triplicate. The data in Table 1 and Table 2 represent averages from between 2-20 runs
# Rat and Human Orexin 1 Receptor Radioligand Binding Studies
# After centrifugation (2K×G, 5 min at 4° C.), the supernatant was aspirated and the pellets frozen and stored at −80° C. […] Each cell pellet from a 15 cm plate was resuspended in 10 mL, stored on ice, and homogenized for 45 sec prior to addition to the reactions. […] The final concentration of DMSO in the reactions is equal to or less than 0.1%. Total and nonspecific binding was determined in the absence and presence of 10 μM almorexant. The total volume of each reaction is 200 μL (20 μL of diluted compounds, 80 μL of [^3H]-(1-(5-(2-fluoro-phenyl)-2-methyl-thiazol-4-yl)-1-((S)-2-(5-phenyl-(1,3,4)oxadiazol-2-ylmethyl)-pyrrolidin-1-yl)-methanone) diluted in PBS and 100 μL of the cell suspension). […] The plates were washed 3 times by aspirating 30 ml PBS through the plates. Plates were dried in 55° C. oven for 60 min, scintillation fluid was added, and the radioactivity was counted on a Topcount (Packard).
# rat orexin 1 receptor = rat orexin 1 receptor (Rattus norvegicus, UniProt P56718); assay: Rat orexin 1 receptor radioligand binding; conditions: averages of 2-20 runs, read-out: rOX1 Ki
# Procedure: as §1, with “The data in Table 1 and Table 2 represent averages from between 2-20 runs” left out
# After centrifugation (2K×G, 5 min at 4° C.), the supernatant was aspirated and the pellets frozen and stored at −80° C. […] Total and nonspecific binding was determined in the absence and presence of 10 μM almorexant. […] Plates were dried in 55° C. oven for 60 min, scintillation fluid was added, and the radioactivity was counted on a Topcount (Packard).
# [1] = human orexin 1 receptor, averages of 2-20 runs
SMILES,Ki (rat orexin 1 receptor) [µM],Ki (human orexin 1 receptor; [1]) [µM],other results
"O=C(c1cccc(F)c1-c1ncccn1)N1C[C@@H]2CC[C@H]1[C@H](Oc1ccc(C(F)(F)F)cn1)C2 [Example 73, (3-fluoro-2-(pyrimidin-2-yl)phenyl)((1S,4R,6R)-6-((5-(trifluoromethyl)pyridin-2-yl)oxy)-2-azabicyclo[2.2.2]octan-2-yl)methanone]",–,–,Ki (human orexin 1 receptor): 0.011 µM
"O=C(c1cccc(F)c1-n1nccn1)N1CC2CCC1C(Nc1cnc(C(F)(F)F)cn1)C2 (racemic) [Example 255, (R/S)-(3-fluoro-2-(2H-1,2,3-triazol-2-yl)phenyl)(6-((5-(trifluoromethyl)pyrazin-2-yl)amino)-2-azabicyclo[2.2.2]octan-2-yl)methanone]",0.012,–,–
"O=C(c1cccc(F)c1-c1ncccn1)N1CC2CCC1C(Oc1ccc(C(F)(F)F)cn1)C2 (racemic) [Example 248, (R/S)-(3-fluoro-2-(pyrimidin-2-yl)phenyl)(6-((5-(trifluoromethyl)pyridin-2-yl)oxy)-2-azabicyclo[2.2.2]octan-2-yl)methanone]",–,0.014,–
"O=C(c1cccc(F)c1-n1nccn1)N1CC2CCC1C(Oc1ccc(C(F)(F)F)cn1)C2 (racemic) [Example 249, (R/S)-(3-fluoro-2-(2H-1,2,3-triazol-2-yl)phenyl)(6-((5-(trifluoromethyl)pyridin-2-yl)oxy)-2-azabicyclo[2.2.2]octan-2-yl)methanone]",–,0.015,–
"O=C(c1cccc(F)c1-c1ncccn1)N1C[C@H]2C[C@@H](Oc3ccc(C(F)(F)F)cn3)[C@@H]1C2 [Example 27, (3-fluoro-2-(pyrimidin-2-yl)phenyl)((1S,4R,6R)-6-((5-(trifluoromethyl)pyridin-2-yl)oxy)-2-azabicyclo[2.2.1]heptan-2-yl)methanone]",0.006,–,–
